From PubChem BioAssay AID2313 (Broad Institute, 2010)
This is a selection; strong and weak results do not stand in their true shares. Some structures show a salt or complex split into parts, the way the source records it. Calls of active or inactive are those of the source.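 Rule for the calls: active = mean inhibition across valid replicates above about 65% (limit read from the data); inconclusive = mean under the limit, yet half or more replicates past it; inactive = the rest.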

Assay: Hedgehog pathway signaling inhibitors, primary screen, luminescence, Shh-LIGHT2 cells, Gli-luciferase (AID 2313);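 note: pathway switched on by Shh-conditioned medium diluted 1 in 25 in low serum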
Details: Shh-LIGHT2 Gli-luciferase reporter, 30 h; active compounds read high

Row | Structure (SMILES) | inhibition
1 | C/C1=C2N=C(/C=C3N=C(/C(C)=C4\[N-][C@@](C)([C@@H]5N=C1[C@](C)(CCC(=O)NCC(C)OP(=O)(O)O[C@@H]1[C@H](O)[C@H](n6cnc7cc(C)c(C)cc76)O[C@H]1CO)[C@H]5CC(N)=O)[C@@](C)(CC(N)=O)[C@@H]4CCC(N)=O)[C@@](C)(CC(N)=O)[C@@H]\3CCC(N)=O)C(C)(C)[C@@H]/2CCC(N)=O.[C-]#N.[Co+3] (some centres undefined) | inactive: 5.61%
2 | O=C(OC1CN2CCC1CC2)c1ccc(Cl)cc1 (centres undefined) | inactive: 22.6%
3 | Cc1ccc(C(=O)OC2CN3CCC2CC3)cc1 (centres undefined) | inactive: 14%
4 | COc1cc2c(cc1NP(C)(=O)Oc1ccccc1)oc1ccccc12 (centres undefined) | inactive: -12.6%
